# Values quoted from earlier work in publication PMC7700664, “In Vitro and Ex Vivo Evaluation of Penetratin as a Non-invasive Permeation Enhancer in the Penetration of Salmon Calcitonin through TR146 Buccal Cells and Porcine Buccal Tissues” (Pharmaceuticals, 2020).
# Test system: TR146 cell layers
# Settings: cited from earlier work
# Procedure: TEER value represents the integrity and the function of tight junctions between cell layers. If a tight junction of cell layer loosen, membrane integrity also diminishes and penetration to the paracellular route increases. The maximum TEER value of the TR146 cell layer incubated for 30 days in the in vitro cell permeation study was 71.30 Ω·cm^2 [39, 40].
smiles,measurement,value
CC[C@H](C)[C@H](NC(=O)[C@H](CCCCN)NC(=O)[C@@H](NC(=O)[C@H](CCC(N)=O)NC(=O)[C@@H](N)CCCNC(=N)N)[C@@H](C)CC)C(=O)N[C@@H](Cc1c[nH]c2ccccc12)C(=O)N[C@@H](Cc1ccccc1)C(=O)N[C@@H](CCC(N)=O)C(=O)N[C@@H](CC(N)=O)C(=O)N[C@@H](CCCNC(=N)N)C(=O)N[C@@H](CCCNC(=N)N)C(=O)N[C@@H](CCSC)C(=O)N[C@@H](CCCCN)C(=O)N[C@@H](Cc1c[nH]c2ccccc12)C(=O)N[C@@H](CCCCN)C(=O)N[C@@H](CCCCN)C(=O)O [Penetratin],change of TEER value on treatment with Penetratin,did not differ significantly
